# According to patent US20230000797A1, “COMPOSITIONS AND METHODS FOR TREATING MOTOR DISORDERS” (ARIZONA BOARD OF REGENTS ON BEHALF OF THE UNIVERSITY OF …, priority 2015, published 2023):
# System: unilaterally 6-OHDA-lesioned LID rats
# Test: L-DOPA-induced AIMs in the preclinical rat LID model (10 hr ketamine 'infusion' paradigm or acute injection)
# Conditions: cohort #1 severe LID; 5 mg/kg ketamine-'infusion' (5 x i.p. two hrs apart); 7 mg/kg L-DOPA
smiles,measurement,value
"CNC1(c2ccccc2Cl)CCCCC1=O (racemic) [ketamine, (RS)-2-(2-Chlorophenyl)-2-(methylamino)cyclohexanone]","reduction of the AIMs score lasted (post-injection, before baseline reached again)",7 days
